Structures are written as SMILES. Read-outs that look alike come from different tables or passages of the source.

Sequences of proteins named here, by UniProt entry; tags and fusion partners are left off.
UniProt P35372, whole entry: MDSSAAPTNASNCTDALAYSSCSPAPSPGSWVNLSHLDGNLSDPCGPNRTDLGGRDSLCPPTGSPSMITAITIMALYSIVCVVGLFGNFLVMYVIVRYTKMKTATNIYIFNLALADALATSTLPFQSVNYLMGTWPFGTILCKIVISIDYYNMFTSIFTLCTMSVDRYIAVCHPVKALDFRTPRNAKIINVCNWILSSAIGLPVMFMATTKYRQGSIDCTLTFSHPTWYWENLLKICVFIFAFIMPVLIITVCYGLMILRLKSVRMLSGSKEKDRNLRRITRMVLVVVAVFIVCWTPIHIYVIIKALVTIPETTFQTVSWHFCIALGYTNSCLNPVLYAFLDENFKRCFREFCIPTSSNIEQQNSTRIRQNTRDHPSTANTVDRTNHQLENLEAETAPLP
UniProt P41145, whole entry: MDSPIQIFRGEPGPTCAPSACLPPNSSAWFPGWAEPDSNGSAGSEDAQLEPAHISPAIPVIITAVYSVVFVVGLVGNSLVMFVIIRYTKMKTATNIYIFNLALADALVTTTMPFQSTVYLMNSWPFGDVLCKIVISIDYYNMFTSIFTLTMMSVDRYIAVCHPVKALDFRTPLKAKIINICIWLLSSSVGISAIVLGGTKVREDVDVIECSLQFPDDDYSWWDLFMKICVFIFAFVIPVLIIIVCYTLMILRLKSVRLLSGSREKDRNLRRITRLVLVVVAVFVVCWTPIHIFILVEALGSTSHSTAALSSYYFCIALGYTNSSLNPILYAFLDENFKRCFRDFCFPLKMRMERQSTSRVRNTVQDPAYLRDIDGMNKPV
UniProt P41146, whole entry: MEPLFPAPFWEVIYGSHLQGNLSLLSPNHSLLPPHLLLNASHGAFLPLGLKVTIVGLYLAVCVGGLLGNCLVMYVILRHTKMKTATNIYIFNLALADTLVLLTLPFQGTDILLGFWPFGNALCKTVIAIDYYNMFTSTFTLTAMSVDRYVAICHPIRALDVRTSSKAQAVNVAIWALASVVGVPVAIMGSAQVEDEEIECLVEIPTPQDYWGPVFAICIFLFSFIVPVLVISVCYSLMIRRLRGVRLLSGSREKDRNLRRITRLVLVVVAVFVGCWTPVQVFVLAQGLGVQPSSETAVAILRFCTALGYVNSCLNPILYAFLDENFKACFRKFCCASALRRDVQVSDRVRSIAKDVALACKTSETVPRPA

Consider 27 molecules from patent USRE49825E1, “Piperidinyl nociceptin receptor compounds” (Astraea Therapeutics, LLC, priority 2015, dated 2024).

For one assay, the target named is mu opioid receptor (Homo sapiens, UniProt P35372). The assay is described as follows: Radioligand binding assay, [3H]DAMGO, membranes of CHO cells transfected with human mu opioid receptor.
The next assay has as its target kappa opioid receptor (Homo sapiens, UniProt P41145). Put plainly: Radioligand binding assay, [3H]U69593, membranes of CHO cells transfected with human kappa opioid receptor.
Assay [1] deals with nociceptin (NOP) receptor (Homo sapiens, UniProt P41146). Put plainly: Radioligand binding assay, [3H]N/OFQ, membranes of CHO cells transfected with human NOP receptor.
[2] abbreviates: read-out: Receptor Binding Ki (nM) μ, Compounds of Formula (III), CHO cell membranes.
[3] abbreviates: read-out: Receptor Binding Ki (nM) κ, Compounds of Formula (III), CHO cell membranes.
Setting [4] is: read-out: Receptor Binding Ki (nM) NOP, Compounds of Formula (III), CHO cell membranes.

In the case of `CC(C)[C@H]1CC[C@@H](N2CCC(N3C(=O)C(CC(=O)NCCC(N)=O)c4ccccc43)CC2)CC1` (stereo partly drawn), the Ki (in general, the equilibrium dissociation constant of an inhibitor or competing ligand from its target) is 15 to 150 nM on mu opioid receptor (setting [2]), greater than 5000 nM on kappa opioid receptor (setting [3]) and 15 to 150 nM in assay [1] (setting [4]).
Turning to `CC(C)[C@H]1CC[C@@H](N2CCC(N3C(=O)C(CC4CCNC4)c4ccccc43)CC2)CC1` (stereo partly drawn), the Ki at mu opioid receptor (setting [2]) is less than 15 nM; at kappa opioid receptor (setting [3]) it was 15 to 150 nM; in assay [1] (setting [4]) it was less than 15 nM.
Turning to `CC(C)[C@H]1CC[C@@H](N2CCC(N3C(=O)/C(=N\OCCCON)c4ccccc43)CC2)CC1`, the Ki is 15 to 150 nM at mu opioid receptor (setting [2]), 15 to 150 nM at kappa opioid receptor (setting [3]) and 150 to 5000 nM in assay [1] (setting [4]).
As for `CC(C)[C@H]1CC[C@@H](N2CCC(N3C(=O)/C(=N\O)c4ccccc43)CC2)CC1`, the Ki at mu opioid receptor (setting [2]) was 15 to 150 nM; at kappa opioid receptor (setting [3]) it was 15 to 150 nM; in assay [1] (setting [4]) it was less than 15 nM.
Consider `CNNC(=O)CC1C(=O)N(C2CCN([C@H]3CC[C@@H](C(C)C)CC3)CC2)c2ccccc21` (stereo partly drawn), for which the figures for the Ki (at mu opioid receptor (setting [2]); on kappa opioid receptor (setting [3]); in assay [1] (setting [4])) were 15 to 150 nM, 150 to 5000 nM and less than 15 nM, respectively.
As for `CC(C)[C@H]1CC[C@@H](N2CCC(N3C(=O)C(CCNC(=O)[C@@H](N)CCCNC(=N)N)c4ccccc43)CC2)CC1` (stereo partly drawn), the Ki at mu opioid receptor (setting [2]) is less than 15 nM; at kappa opioid receptor (setting [3]), 150 to 5000 nM; in assay [1] (setting [4]), less than 15 nM.
Take `CC(C)[C@H]1CC[C@@H](N2CCC(N3C(=O)/C(=C\C#N)c4ccccc43)CC2)CC1`: the Ki on mu opioid receptor (setting [2]) is 15 to 150 nM; on kappa opioid receptor (setting [3]) it was 15 to 150 nM; in assay [1] (setting [4]), less than 15 nM.
For `CC(C)[C@H]1CC[C@@H](N2CCC(N3C(=O)/C(=C\C(=O)CCC(N)=O)c4ccccc43)CC2)CC1`, the Ki was 15 to 150 nM on mu opioid receptor (setting [2]), 150 to 5000 nM at kappa opioid receptor (setting [3]) and less than 15 nM in assay [1] (setting [4]).
`CC(C)[C@H]1CC[C@@H](N2CCC(N3C(=O)C(CC#N)c4ccccc43)CC2)CC1` (stereo partly drawn): the Ki on mu opioid receptor (setting [2]) was less than 15 nM; on kappa opioid receptor (setting [3]), 150 to 5000 nM; in assay [1] (setting [4]) it was less than 15 nM.
With `CO/N=C1\C(=O)N(C2CCN([C@H]3CC[C@@H](C(C)C)CC3)CC2)c2ccccc21`, the Ki on mu opioid receptor (setting [2]) was 15 to 150 nM; at kappa opioid receptor (setting [3]), 150 to 5000 nM; in assay [1] (setting [4]) it was less than 15 nM.
`OCc1cc2ccccc2n1C1CCN([C@@H]2CC[C@@H]3CCCc4cccc2c43)CC1`: the Ki on mu opioid receptor (read-out: Receptor Binding Ki (nM) μ, Compounds of Formula (II), CHO cell membranes) was 15 to 150 nM; at kappa opioid receptor (read-out: Receptor Binding Ki (nM) κ, Compounds of Formula (II), CHO cell membranes), 150 to 5000 nM; in assay [1] (read-out: Receptor Binding Ki (nM) NOP, Compounds of Formula (II), CHO cell membranes), less than 15 nM.
On to `CONC(=O)CC1C(=O)N(C2CCN([C@H]3CC[C@@H](C(C)C)CC3)CC2)c2ccccc21` (stereo partly drawn), for which the Ki at mu opioid receptor (setting [2]) is 15 to 150 nM; at kappa opioid receptor (setting [3]) it was 150 to 5000 nM; in assay [1] (setting [4]) it was less than 15 nM.
The like results for `CCOC(=O)NC1C(=O)N(C2CCN([C@H]3CC[C@@H](C(C)C)CC3)CC2)c2ccccc21` (stereo partly drawn) were, in that order, less than 15 nM, 15 to 150 nM and less than 15 nM.
With `CC(C)[C@H]1CC[C@@H](N2CCC(N3C(=O)C(CC(N)=O)c4ccccc43)CC2)CC1` (stereo partly drawn), the results for the Ki (at mu opioid receptor (setting [2]); on kappa opioid receptor (setting [3]); in assay [1] (setting [4])) were less than 15 nM, 150 to 5000 nM and less than 15 nM, respectively.
With `CC(C)OC(=O)CC1C(=O)N(C2CCN([C@H]3CC[C@@H](C(C)C)CC3)CC2)c2ccccc21` (stereo partly drawn), the Ki on mu opioid receptor (setting [2]) fell in the range of 15 to 150 nM; on kappa opioid receptor (setting [3]), 150 to 5000 nM; in assay [1] (setting [4]), 15 to 150 nM.
With `CC(C)[C@H]1CC[C@@H](N2CCC(N3C(=O)C(CCO)c4ccccc43)CC2)CC1` (stereo partly drawn), the Ki on mu opioid receptor (setting [2]) was less than 15 nM; at kappa opioid receptor (setting [3]), 150 to 5000 nM; in assay [1] (setting [4]) it was less than 15 nM.
On to `CC(C)[C@H]1CC[C@@H](N2CCC(N3C(=O)C(CC(=O)NOCc4ccccc4)c4ccccc43)CC2)CC1` (stereo partly drawn), for which the Ki is 15 to 150 nM at mu opioid receptor (setting [2]), 15 to 150 nM on kappa opioid receptor (setting [3]) and less than 15 nM in assay [1] (setting [4]).
Turning to `COC(=O)CC1C(=O)N(C2CCN([C@H]3CC[C@@H](C(C)C)CC3)CC2)c2ccccc21` (stereo partly drawn), the Ki (on mu opioid receptor (setting [2]); at kappa opioid receptor (setting [3]); in assay [1] (setting [4])) was less than 15 nM throughout.
Consider `CC(C)[C@H]1CC[C@@H](N2CCC(N3C(=O)C(CC4CCOC4)c4ccccc43)CC2)CC1` (stereo partly drawn), for which the Ki at mu opioid receptor (setting [2]) was 15 to 150 nM; on kappa opioid receptor (setting [3]) it was 15 to 150 nM; in assay [1] (setting [4]), less than 15 nM.
For `CC(=O)NCCC1C(=O)N(C2CCN([C@H]3CC[C@@H](C(C)C)CC3)CC2)c2ccccc21` (stereo partly drawn), the Ki at mu opioid receptor (setting [2]) is 15 to 150 nM; at kappa opioid receptor (setting [3]), 150 to 5000 nM; in assay [1] (setting [4]), less than 15 nM.
For the molecule `CC(C)[C@H]1CC[C@@H](N2CCC(N3C(=O)C(CC(=O)NO)c4ccccc43)CC2)CC1` (stereo partly drawn), the Ki on mu opioid receptor (setting [2]) is 15 to 150 nM; on kappa opioid receptor (setting [3]), 150 to 5000 nM; in assay [1] (setting [4]) it was less than 15 nM.
The like results for `CC(=O)NNC(=O)CC1C(=O)N(C2CCN([C@H]3CC[C@@H](C(C)C)CC3)CC2)c2ccccc21` (stereo partly drawn) were, in that order, 15 to 150 nM, 15 to 150 nM and less than 15 nM.
As for `CC(C)[C@H]1CC[C@@H](N2CCC(N3C(=O)/C(=C\C(N)=O)c4ccccc43)CC2)CC1`, the Ki was 15 to 150 nM at mu opioid receptor (setting [2]), 15 to 150 nM at kappa opioid receptor (setting [3]) and less than 15 nM in assay [1] (setting [4]).
As for `CONC(=O)CC1C(=O)N(C2CCN(C3CCC(C)(C)CC3)CC2)c2ccccc21` (stereo not drawn), the Ki at mu opioid receptor (setting [2]) is less than 15 nM; on kappa opioid receptor (setting [3]), 150 to 5000 nM; in assay [1] (setting [4]) it was 15 to 150 nM.
As to `CCOC(=O)CC1C(=O)N(C2CCN([C@H]3CC[C@@H](C(C)C)CC3)CC2)c2ccccc21` (stereo partly drawn), the Ki is 15 to 150 nM at mu opioid receptor (setting [2]), 15 to 150 nM at kappa opioid receptor (setting [3]) and less than 15 nM in assay [1] (setting [4]).
As for `CC(=O)NC1C(=O)N(C2CCN([C@H]3CC[C@@H](C(C)C)CC3)CC2)c2ccccc21` (stereo partly drawn), the values for the Ki (on mu opioid receptor (setting [2]); on kappa opioid receptor (setting [3]); in assay [1] (setting [4])) were 15 to 150 nM, 150 to 5000 nM and less than 15 nM, respectively.
As for `CC(=O)N/N=C1\C(=O)N(C2CCN([C@H]3CC[C@@H](C(C)C)CC3)CC2)c2ccccc21`, the Ki (on mu opioid receptor (setting [2]); on kappa opioid receptor (setting [3]); in assay [1] (setting [4])) was 15 to 150 nM in each case.
